Values quoted from earlier work as cited in PMC4762448 (Journal of biomolecular screening, 2011).

The chains behind the UniProt entries cited, without tags or fusion partners. Residues count along the entry.
UniProt P58154, 20-229 limits assumed: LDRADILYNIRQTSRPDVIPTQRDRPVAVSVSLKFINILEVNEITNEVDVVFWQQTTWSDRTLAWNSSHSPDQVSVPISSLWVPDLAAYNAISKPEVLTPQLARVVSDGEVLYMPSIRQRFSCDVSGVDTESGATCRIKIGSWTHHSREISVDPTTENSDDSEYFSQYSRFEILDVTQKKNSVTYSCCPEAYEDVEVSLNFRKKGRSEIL

Molecular target: Ls-AChBP (Lymnaea stagnalis, UniProt P58154)
Conditions: cited from earlier work

In the case of CN1CCC[C@H]1c1cccnc1 [nicotine], the Kd is given as 42.5 nM.
